Source: patent US20150368338A1 (Janssen / Centocor, published 2015)

molecular target: T1, IFN-αB2 (human, UniProt P32881 24-189); assay: ProteOn SPR, cell supernatant;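 further: each binding measurement used just a single antigen concentration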
T1 construct: Recombinant, HEK293; also called IFN-α8

| Binder | Kd [nM] |
| --- | --- |
| IFWM3381 (antibody, IgG1, V domains shown, mAb; IgG1/kappa said of the parent and of selected mAbs; also called IFWB3116) VH: EVQLVQSGAEVKKPGESLKISCKGSGYSFTSYWIGWVRQMPGKGLEWMGIIDPSDSDTRYSPSFQGQVTISADKSISTAYLQWSSLKASDTAMYYCARHPGLAWAPDFDYWGQGTLVTVSS VL: DIQMTQSPSSLSASVGDRVTITCRASQSIGSFLNWYQQKPGKAPKLLIYFASSLQSGVPSRFSGSGSGTDFTLTISSLQPEDFATYYCQQSYSIPITFGQGTKVEIK | 0.058 |
| IFWM3372 (antibody, IgG1, V domains shown, mAb; IgG1/kappa said of the parent and of selected mAbs; also called IFWB3107) VH: EVQLVQSGAEVKKPGESLKISCKGSGYSFTSYWIGWVRQMPGKGLEWMGIIDPSDSDTAYSPSFQGQVTISADKSISTAYLQWSSLKASDTAMYYCARHPGLNWAPDFDYWGQGTLVTVSS VL: DIQMTQSPSSLSASVGDRVTITCRASQSIDNNNLNWYQQKPGKAPKLLIYAASSLQSGVPSRFSGSGSGTDFTLTISSLQPEDFATYYCQQGYDWPLTFGQGTKVEIK | 0.154 |
| IFWM3375 (antibody, IgG1, V domains shown, mAb; IgG1/kappa said of the parent and of selected mAbs; also called IFWB3110) VH: EVQLVQSGAEVKKPGESLKISCKGSGYSFTSYWIGWVRQMPGKGLEWMGIIDPSDSDTAYSPSFQGQVTISADKSISTAYLQWSSLKASDTAMYYCARHPGLNWAPDFDYWGQGTLVTVSS VL: DIQMTQSPSSLSASVGDRVTITCRASQSIRNNYLNWYQQKPGKAPKLLIYAASSLQSGVPSRFSGSGSGTDFTLTISSLQPEDFATYYCQQGYDTPLTFGQGTKVEIK | 0.033 |
| IFWM3391 (antibody, IgG1, V domains shown, mAb; IgG1/kappa said of the parent and of selected mAbs; also called IFWB3126) VH: EVQLVQSGAEVKKPGESLKISCKGSGYSFTSYWIGWVRQMPGKGLEWMGIIDPSDSDTRYSPSFQGQVTISADKSISTAYLQWSSLKASDTAMYYCARHPGLAWAPDFDYWGQGTLVTVSS VL: DIQMTQSPSSLSASVGDRVTITCRASQSINNFLNWYQQKPGKAPKLLIYFASSLQSGVPSRFSGSGSGTDFTLTISSLQPEDFATYYCQQSFNLPITFGQGTKVEIK | 0.029 |
| IFWM3376 (antibody, IgG1, V domains shown, mAb; IgG1/kappa said of the parent and of selected mAbs; also called IFWB3111) VH: EVQLVQSGAEVKKPGESLKISCKGSGYSFTSYWIGWVRQMPGKGLEWMGIIDPSDSDTAYSPSFQGQVTISADKSISTAYLQWSSLKASDTAMYYCARHPGLNWAPDFDYWGQGTLVTVSS VL: DIQMTQSPSSLSASVGDRVTITCRASQSISNSNLNWYQQKPGKAPKLLIHWASSLQSGVPSRFSGSGSGTDFTLTISSLQPEDFATYYCQQWYDHPLTFGQGTKVEIK | 0.037 |
| IFWM3398 (antibody, IgG1, V domains shown, mAb; IgG1/kappa said of the parent and of selected mAbs; also called IFWB3133) VH: EVQLVQSGAEVKKPGESLKISCKGSGYSFTSYWIGWVRQMPGKGLEWMGIIDPSDSDTRYSPSFQGQVTISADKSISTAYLQWSSLKASDTAMYYCARHPGLAWAPDFDYWGQGTLVTVSS VL: DIQMTQSPSSLSASVGDRVTITCRASQSINGVLNWYQQKPGKAPKLLIYFASSLQSGVPSRFSGSGSGTDFTLTISSLQPEDFATYYCQQSHDFPLTFGQGTKVEIK | 0.032 |
| IFWM3393 (antibody, IgG1, V domains shown, mAb; IgG1/kappa said of the parent and of selected mAbs; also called IFWB3128) VH: EVQLVQSGAEVKKPGESLKISCKGSGYSFTSYWIGWVRQMPGKGLEWMGIIDPSDSDTRYSPSFQGQVTISADKSISTAYLQWSSLKASDTAMYYCARHPGLAWAPDFDYWGQGTLVTVSS VL: DIQMTQSPSSLSASVGDRVTITCRASQSITSSLNWYQQKPGKAPKLLIYFASSLQSGVPSRFSGSGSGTDFTLTISSLQPEDFATYYCQQSFDLPLTFGQGTKVEIK | 0.07 |
| IFWM3420 (antibody, IgG1, V domains shown, mAb; IgG1/kappa said of the parent and of selected mAbs; also called IFWB3155) VH: EVQLVQSGAEVKKPGESLKISCKGSGYSFTSYWIGWVRQMPGKGLEWMGIIDPSDSDTAYSPSFQGQVTISADKSISTAYLQWSSLKASDTAMYYCARHPGLNWAPDFDYWGQGTLVTVSS VL: DIQMTQSPSSLSASVGDRVTITCRASQSIAGFLNWYQQKPGKAPKLLIYYASSLQSGVPSRFSGSGSGTDFTLTISSLQPEDFATYYCQQSYSIPITFGQGTKVEIK | 0.061 |
| IFWM3418 (antibody, IgG1, V domains shown, mAb; IgG1/kappa said of the parent and of selected mAbs; also called IFWB3153) VH: EVQLVQSGAEVKKPGESLKISCKGSGYSFTSYWIGWVRQMPGKGLEWMGIIDPSDSDTRYSPSFQGQVTISADKSISTAYLQWSSLKASDTAMYYCARHPGLNWAPDFDYWGQGTLVTVSS VL: DIQMTQSPSSLSASVGDRVTITCRASQSIAGFLNWYQQKPGKAPKLLIYYASSLQSGVPSRFSGSGSGTDFTLTISSLQPEDFATYYCQQSYSIPITFGQGTKVEIK | 0.206 |
| IFWM3396 (antibody, IgG1, V domains shown, mAb; IgG1/kappa said of the parent and of selected mAbs; also called IFWB3131) VH: EVQLVQSGAEVKKPGESLKISCKGSGYSFTSYWIGWVRQMPGKGLEWMGIIDPSDSDTRYSPSFQGQVTISADKSISTAYLQWSSLKASDTAMYYCARHPGLAWAPDFDYWGQGTLVTVSS VL: DIQMTQSPSSLSASVGDRVTITCRASQSISEYLNWYQQKPGKAPKLLIYFASSLQSGVPSRFSGSGSGTDFTLTISSLQPEDFATYYCQQSHSLPITFGQGTKVEIK | 0.048 |
| IFWM3387 (antibody, IgG1, V domains shown, mAb; IgG1/kappa said of the parent and of selected mAbs; also called IFWB3122) VH: EVQLVQSGAEVKKPGESLKISCKGSGYSFTSYWIGWVRQMPGKGLEWMGIIDPSDSDTRYSPSFQGQVTISADKSISTAYLQWSSLKASDTAMYYCARHPGLAWAPDFDYWGQGTLVTVSS VL: DIQMTQSPSSLSASVGDRVTITCRASQSIGGFLNWYQQKPGKAPKLLIYFASSLQSGVPSRFSGSGSGTDFTLTISSLQPEDFATYYCQQSYSLPITFGQGTKVEIK | 0.036 |
| IFWM3397 (antibody, IgG1, V domains shown, mAb; IgG1/kappa said of the parent and of selected mAbs; also called IFWB3132) VH: EVQLVQSGAEVKKPGESLKISCKGSGYSFTSYWIGWVRQMPGKGLEWMGIIDPSDSDTRYSPSFQGQVTISADKSISTAYLQWSSLKASDTAMYYCARHPGLAWAPDFDYWGQGTLVTVSS VL: DIQMTQSPSSLSASVGDRVTITCRASQSITGFLNWYQQKPGKAPKLLIYAASSLQSGVPSRFSGSGSGTDFTLTISSLQPEDFATYYCQQSHDFPLTFGQGTKVEIK | 0.042 |
| IFWM3383 (antibody, IgG1, V domains shown, mAb; IgG1/kappa said of the parent and of selected mAbs; also called IFWB3118) VH: EVQLVQSGAEVKKPGESLKISCKGSGYSFTSYWIGWVRQMPGKGLEWMGIIDPSDSDTRYSPSFQGQVTISADKSISTAYLQWSSLKASDTAMYYCARHPGLAWAPDFDYWGQGTLVTVSS VL: DIQMTQSPSSLSASVGDRVTITCRASQSISKFLNWYQQKPGKAPKLLIYFASSLQSGVPSRFSGSGSGTDFTLTISSLQPEDFATYYCQQSNTLPFTFGQGTKVEIK | 0.033 |
| IFWM3419 (antibody, IgG1, V domains shown, mAb; IgG1/kappa said of the parent and of selected mAbs; also called IFWB3154) VH: EVQLVQSGAEVKKPGESLKISCKGSGYSFTSYWIGWVRQMPGKGLEWMGIIDPSDSDTRYSPSFQGQVTISADKSISTAYLQWSSLKASDTAMYYCARHPGLAWAPDFDYWGQGTLVTVSS VL: DIQMTQSPSSLSASVGDRVTITCRASQSIAGFLNWYQQKPGKAPKLLIYYASSLQSGVPSRFSGSGSGTDFTLTISSLQPEDFATYYCQQSYSIPITFGQGTKVEIK | 0.09 |

Now those with a lower Kd, led by results:

| Kd [nM] | Binder |
| --- | --- |
| 0.003 | IFWM3395 (antibody, IgG1, V domains shown, mAb; IgG1/kappa said of the parent and of selected mAbs; also called IFWB3130) VH: EVQLVQSGAEVKKPGESLKISCKGSGYSFTSYWIGWVRQMPGKGLEWMGIIDPSDSDTRYSPSFQGQVTISADKSISTAYLQWSSLKASDTAMYYCARHPGLAWAPDFDYWGQGTLVTVSS VL: DIQMTQSPSSLSASVGDRVTITCRASQSISKFLNWYQQKPGKAPKLLIYFASSLQSGVPSRFSGSGSGTDFTLTISSLQPEDFATYYCQQSYDFPITFGQGTKVEIK |
| 0.016 | IFWM3386 (antibody, IgG1, V domains shown, mAb; IgG1/kappa said of the parent and of selected mAbs; also called IFWB3121) VH: EVQLVQSGAEVKKPGESLKISCKGSGYSFTSYWIGWVRQMPGKGLEWMGIIDPSDSDTRYSPSFQGQVTISADKSISTAYLQWSSLKASDTAMYYCARHPGLAWAPDFDYWGQGTLVTVSS VL: DIQMTQSPSSLSASVGDRVTITCRASQSIAEFLNWYQQKPGKAPKLLIYFASSLQSGVPSRFSGSGSGTDFTLTISSLQPEDFATYYCQQSIDFPLTFGQGTKVEIK |
| 0.01 | IFWM3389 (antibody, IgG1, V domains shown, mAb; IgG1/kappa said of the parent and of selected mAbs; also called IFWB3124) VH: EVQLVQSGAEVKKPGESLKISCKGSGYSFTSYWIGWVRQMPGKGLEWMGIIDPSDSDTRYSPSFQGQVTISADKSISTAYLQWSSLKASDTAMYYCARHPGLAWAPDFDYWGQGTLVTVSS VL: DIQMTQSPSSLSASVGDRVTITCRASQSIDDFLNWYQQKPGKAPKLLIYFASSLQSGVPSRFSGSGSGTDFTLTISSLQPEDFATYYCQQSHTLPLTFGQGTKVEIK |
| 0.027 | IFWM3382 (antibody, IgG1, V domains shown, mAb; IgG1/kappa said of the parent and of selected mAbs; also called IFWB3117) VH: EVQLVQSGAEVKKPGESLKISCKGSGYSFTSYWIGWVRQMPGKGLEWMGIIDPSDSDTRYSPSFQGQVTISADKSISTAYLQWSSLKASDTAMYYCARHPGLAWAPDFDYWGQGTLVTVSS VL: DIQMTQSPSSLSASVGDRVTITCRASQSIGSALNWYQQKPGKAPKLLIYFASSLQSGVPSRFSGSGSGTDFTLTISSLQPEDFATYYCQQSYDFPLTFGQGTKVEIK |
| 0.023 | IFWM3371 (antibody, IgG1, V domains shown, mAb; IgG1/kappa said of the parent and of selected mAbs; also called IFWB3106) VH: EVQLVQSGAEVKKPGESLKISCKGSGYSFTSYWIGWVRQMPGKGLEWMGIIDPSDSDTAYSPSFQGQVTISADKSISTAYLQWSSLKASDTAMYYCARHPGLNWAPDFDYWGQGTLVTVSS VL: DIQMTQSPSSLSASVGDRVTITCRASQSIANTNLNWYQQKPGKAPKLLIHWASSLQSGVPSRFSGSGSGTDFTLTISSLQPEDFATYYCQQWYDNPLTFGQGTKVEIK |
| 0.024 | IFWM3370 (antibody, IgG1, V domains shown, mAb; IgG1/kappa said of the parent and of selected mAbs; also called IFWB3105) VH: EVQLVQSGAEVKKPGESLKISCKGSGYSFTSYWIGWVRQMPGKGLEWMGIIDPSDSDTAYSPSFQGQVTISADKSISTAYLQWSSLKASDTAMYYCARHPGLNWAPDFDYWGQGTLVTVSS VL: DIQMTQSPSSLSASVGDRVTITCRASQSIDNSYLNWYQQKPGKAPKLLIYGASSLQSGVPSRFSGSGSGTDFTLTISSLQPEDFATYYCQQGWDWPLTFGQGTKVEIK |
| 0.026 | IFWM3388 (antibody, IgG1, V domains shown, mAb; IgG1/kappa said of the parent and of selected mAbs; also called IFWB3123) VH: EVQLVQSGAEVKKPGESLKISCKGSGYSFTSYWIGWVRQMPGKGLEWMGIIDPSDSDTRYSPSFQGQVTISADKSISTAYLQWSSLKASDTAMYYCARHPGLAWAPDFDYWGQGTLVTVSS VL: DIQMTQSPSSLSASVGDRVTITCRASQSIGKSLNWYQQKPGKAPKLLIYFASSLQSGVPSRFSGSGSGTDFTLTISSLQPEDFATYYCQQSYDFPLTFGQGTKVEIK |
| 0.008 | IFWM3403 (antibody, IgG1, V domains shown, mAb; IgG1/kappa said of the parent and of selected mAbs; also called IFWB3138) VH: EVQLVQSGAEVKKPGESLKISCKGSGYSFTSYWIGWVRQMPGKGLEWMGIIDPSDSDTRYSPSFQGQVTISADKSISTAYLQWSSLKASDTAMYYCARHPGLAWAPDFDYWGQGTLVTVSS VL: DIQMTQSPSSLSASVGDRVTITCRASQSIRNSLNWYQQKPGKAPKLLIKWASSLQSGVPSRFSGSGSGTDFTLTISSLQPEDFATYYCQQLYDWPLTFGQGTKVEIK |
